Source: patent publication US10787436B2, “Inhibitors of cyclin-dependent kinase 7 (CDK7)” (Dana-Farber Cancer Institute, Inc., priority 2012, dated 2020)

By UniProt entry, the sequences of proteins in these tests, tags left out. Residues count along the entry.
UniProt P50750, whole entry: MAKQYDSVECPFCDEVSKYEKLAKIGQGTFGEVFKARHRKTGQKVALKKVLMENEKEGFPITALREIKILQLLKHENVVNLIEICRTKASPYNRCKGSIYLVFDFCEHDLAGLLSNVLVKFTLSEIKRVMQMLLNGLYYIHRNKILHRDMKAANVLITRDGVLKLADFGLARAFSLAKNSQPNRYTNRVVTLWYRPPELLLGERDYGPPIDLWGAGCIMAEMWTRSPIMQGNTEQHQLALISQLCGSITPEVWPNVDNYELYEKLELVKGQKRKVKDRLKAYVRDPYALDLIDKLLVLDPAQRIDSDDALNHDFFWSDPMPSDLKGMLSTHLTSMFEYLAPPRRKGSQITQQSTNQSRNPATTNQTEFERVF
UniProt Q16584, whole entry: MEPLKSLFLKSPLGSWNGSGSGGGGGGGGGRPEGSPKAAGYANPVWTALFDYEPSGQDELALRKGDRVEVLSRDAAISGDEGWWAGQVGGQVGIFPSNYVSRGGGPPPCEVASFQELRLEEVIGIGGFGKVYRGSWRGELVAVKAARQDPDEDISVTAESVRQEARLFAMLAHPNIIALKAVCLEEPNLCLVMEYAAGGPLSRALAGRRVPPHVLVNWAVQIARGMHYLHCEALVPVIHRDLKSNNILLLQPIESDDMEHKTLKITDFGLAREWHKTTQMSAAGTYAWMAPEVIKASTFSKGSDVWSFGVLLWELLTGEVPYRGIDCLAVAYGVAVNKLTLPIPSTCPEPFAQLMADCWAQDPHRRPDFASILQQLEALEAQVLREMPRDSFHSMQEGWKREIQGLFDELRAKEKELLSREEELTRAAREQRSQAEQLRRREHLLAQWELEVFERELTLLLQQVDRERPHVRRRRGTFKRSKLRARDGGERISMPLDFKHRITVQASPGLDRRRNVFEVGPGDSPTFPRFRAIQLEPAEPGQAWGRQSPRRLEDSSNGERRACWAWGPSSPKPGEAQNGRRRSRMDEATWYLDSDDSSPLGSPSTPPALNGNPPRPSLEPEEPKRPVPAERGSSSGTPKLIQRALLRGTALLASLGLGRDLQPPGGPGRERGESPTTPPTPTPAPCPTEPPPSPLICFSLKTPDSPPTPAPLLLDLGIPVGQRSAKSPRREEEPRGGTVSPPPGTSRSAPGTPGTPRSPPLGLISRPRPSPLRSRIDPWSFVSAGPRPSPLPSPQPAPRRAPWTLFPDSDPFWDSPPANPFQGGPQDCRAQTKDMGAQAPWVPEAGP
UniProt Q00535, whole entry: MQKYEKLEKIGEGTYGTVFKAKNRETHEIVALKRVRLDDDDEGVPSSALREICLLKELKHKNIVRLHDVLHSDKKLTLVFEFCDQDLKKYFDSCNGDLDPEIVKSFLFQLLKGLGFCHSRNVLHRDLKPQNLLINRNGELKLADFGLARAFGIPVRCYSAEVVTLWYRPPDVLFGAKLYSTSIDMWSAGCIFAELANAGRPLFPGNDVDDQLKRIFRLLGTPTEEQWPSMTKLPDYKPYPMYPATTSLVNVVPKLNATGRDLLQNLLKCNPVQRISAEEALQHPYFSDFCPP
UniProt P50613, 2-346 limits assumed: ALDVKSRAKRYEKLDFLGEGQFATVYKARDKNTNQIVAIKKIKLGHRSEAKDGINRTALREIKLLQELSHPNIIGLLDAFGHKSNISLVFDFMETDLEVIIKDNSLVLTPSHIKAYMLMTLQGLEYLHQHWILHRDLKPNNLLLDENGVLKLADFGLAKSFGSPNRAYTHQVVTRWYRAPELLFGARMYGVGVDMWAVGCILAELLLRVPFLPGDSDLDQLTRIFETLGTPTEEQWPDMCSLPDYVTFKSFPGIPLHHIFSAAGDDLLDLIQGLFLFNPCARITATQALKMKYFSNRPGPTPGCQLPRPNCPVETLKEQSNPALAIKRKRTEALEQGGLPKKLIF
UniProt Q15078, 99-307 partner limits assumed: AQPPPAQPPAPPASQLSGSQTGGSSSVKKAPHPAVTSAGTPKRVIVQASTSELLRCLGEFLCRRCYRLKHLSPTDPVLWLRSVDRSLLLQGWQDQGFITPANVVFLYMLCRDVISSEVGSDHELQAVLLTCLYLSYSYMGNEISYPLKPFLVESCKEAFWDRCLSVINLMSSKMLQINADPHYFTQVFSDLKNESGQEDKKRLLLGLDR
UniProt O60563, whole entry partner: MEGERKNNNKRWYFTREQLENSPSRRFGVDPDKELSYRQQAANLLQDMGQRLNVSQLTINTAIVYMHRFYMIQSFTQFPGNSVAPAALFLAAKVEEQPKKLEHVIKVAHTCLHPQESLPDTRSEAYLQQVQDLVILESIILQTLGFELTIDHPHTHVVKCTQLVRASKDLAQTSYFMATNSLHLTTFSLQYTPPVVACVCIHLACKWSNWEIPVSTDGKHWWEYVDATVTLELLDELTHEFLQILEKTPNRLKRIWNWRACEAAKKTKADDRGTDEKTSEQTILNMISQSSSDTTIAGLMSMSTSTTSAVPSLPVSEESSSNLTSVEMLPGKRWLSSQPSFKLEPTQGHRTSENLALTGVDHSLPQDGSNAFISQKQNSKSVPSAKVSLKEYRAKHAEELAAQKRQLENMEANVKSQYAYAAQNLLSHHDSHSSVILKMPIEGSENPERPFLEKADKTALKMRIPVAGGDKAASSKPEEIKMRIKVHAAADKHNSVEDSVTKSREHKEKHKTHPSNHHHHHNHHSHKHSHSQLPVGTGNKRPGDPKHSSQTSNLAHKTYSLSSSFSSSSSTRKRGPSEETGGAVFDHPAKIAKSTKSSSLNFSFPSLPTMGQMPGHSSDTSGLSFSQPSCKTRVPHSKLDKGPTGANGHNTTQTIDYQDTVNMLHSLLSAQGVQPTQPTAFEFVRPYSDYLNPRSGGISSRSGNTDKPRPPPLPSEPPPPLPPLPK

Experiments:
CDK9/cyclin T1 = CDK9/cyclin T1 (Homo sapiens (Human), UniProt P50750); test: Life Technologies Adapta kinase assay, CDK9/cyclin T1; format: biochemical; details: read-out: Calculated IC50, CDK9/cyclin T1
hTERT-HME1 = test: Proliferation assay, CellTiter-Glo, 72 hour; format: cell-based; details: read-out: Inhibition of proliferation, hTERT-HME1, immortalized normal mammary epithelial cell line
143B = test: Proliferation assay, CellTiter-Glo, 72 hour; format: cell-based; details: read-out: Inhibition of proliferation, 143B, osteosarcoma cell line
SAOS = test: Proliferation assay, CellTiter-Glo, 72 hour; format: cell-based; details: read-out: Inhibition of proliferation, SAOS, osteosarcoma cell line
THP-1 = test: Proliferation assay, CellTiter-Glo, 72 hour; format: cell-based; details: read-out: Inhibition of proliferation, THP-1, blood cancer cell line
Hs863T = test: Proliferation assay, CellTiter-Glo, 72 hour; format: cell-based; details: read-out: Inhibition of proliferation, Hs863T, Ewing's sarcoma cell line
MNNG-HOS Cl#5 = test: Proliferation assay, CellTiter-Glo, 72 hour; format: cell-based; details: read-out: Inhibition of proliferation, MNNG-HOS Cl#5, osteosarcoma cell line
RS4-11 = test: Proliferation assay, CellTiter-Glo, 72 hour; format: cell-based; details: read-out: Inhibition of proliferation, RS4-11, blood cancer cell line
MV4-11 = test: Proliferation assay, CellTiter-Glo, 72 hour; format: cell-based; details: read-out: Inhibition of proliferation, MV4-11, blood cancer cell line
RD-ES = test: Proliferation assay, CellTiter-Glo, 72 hour; format: cell-based; details: read-out: Inhibition of proliferation, RD-ES, Ewing's sarcoma cell line
T47D = test: Proliferation assay, CellTiter-Glo, 72 hour; format: cell-based; details: read-out: Inhibition of proliferation, T47D, breast cancer cell line
SK-ES = test: Proliferation assay, CellTiter-Glo, 72 hour; format: cell-based; details: read-out: Inhibition of proliferation, SK-ES, Ewing's sarcoma cell line
Hs822T = test: Proliferation assay, CellTiter-Glo, 72 hour; format: cell-based; details: read-out: Inhibition of proliferation, Hs822T, Ewing's sarcoma cell line
HL60 = test: Proliferation assay, CellTiter-Glo, 72 hour; format: cell-based; details: read-out: Inhibition of proliferation, HL60, blood cancer cell line
MDA-MB231 = test: Proliferation assay, CellTiter-Glo, 72 hour; format: cell-based; details: read-out: Inhibition of proliferation, MDA-MB231, breast cancer cell line
SKBR3 = test: Proliferation assay, CellTiter-Glo, 72 hour; format: cell-based; details: read-out: Inhibition of proliferation, SKBR3, breast cancer cell line
MCF7 = test: Proliferation assay, CellTiter-Glo, 72 hour; format: cell-based; details: read-out: Inhibition of proliferation, MCF7, breast cancer cell line
A673 = test: Proliferation assay, CellTiter-Glo, 72 hour; format: cell-based; details: read-out: Inhibition of proliferation, A673, Ewing's sarcoma cell line
MCF10A = test: Proliferation assay, CellTiter-Glo, 72 hour; format: cell-based; details: read-out: Inhibition of proliferation, MCF10A, non-tumorigenic breast epithelial cell line
MLK3 = MLK3 (Homo sapiens (Human), UniProt Q16584); test: Life Technologies LanthaScreen Eu kinase assay, MLK3; format: binding; details: read-out: Calculated IC50, MLK3
CDK2/cyclin A = CDK2/cyclin A (Homo sapiens (Human), UniProt P24941); test: Life Technologies Z'-Lyte kinase assay, CDK2; format: biochemical; details: read-out: Calculated IC50, CDK2/cyclin A
CDK5/p25 = CDK5/p25 (Homo sapiens (Human), UniProt Q00535); test: Life Technologies Z'-Lyte kinase assay, CDK5/p25; format: biochemical; details: read-out: Calculated IC50, CDK5/p25
CDK7 = CDK7 (Homo sapiens (Human), UniProt P50613); test: Life Technologies Adapta kinase assay, CDK7 (cyclin H and MNAT1); format: biochemical; details: read-out: Calculated IC50, CDK7; 10 μM down to 0.514 nM, 3-fold serial dilutions

Measured: IC50

Cc1ccc(Nc2ncc(Cl)c(-c3c[nH]c4ccccc34)n2)cc1NC(=O)c1ccc(NC(=O)/C=C/CN(C)C)cc1
> 1000 nM: CDK2/cyclin A | CDK5/p25
500 to 5000 nM: 143B | Hs863T | MNNG-HOS Cl#5 | T47D | SKBR3
100 to 1000 nM: CDK9/cyclin T1 | MLK3
not listed: CDK7
< 500 nM: all other assays above

O=C(/C=C/CO)Nc1ccc(S(=O)(=O)Nc2cccc(Nc3ncc(Cl)c(-c4c[nH]c5ccccc45)n3)c2)cc1
100 to 1000 nM: MLK3 | CDK5/p25
< 100 nM: CDK7
